Source: article PMC3674150 (Cancer research, 2013)

Experiments:
[1] = system: BCR-ABL signaling (pCrkL) in K562 cells; details: 2 h treatment at 10 nM, immunoblot
[2] = system: BCR-ABL signaling (pSTAT5) in primary CML cells; details: 100 nM for 4 h, FACS

## Cc1nc(Nc2ncc(C(=O)Nc3c(C)cccc3Cl)s2)cc(N2CCN(CCO)CC2)n1 [dasatinib]
[1]
  pCrkL level after treatment compared to untreated/pretreatment: < 10%
[2]
  pSTAT5 at 24 h post expanded washout: fully rescued to pretreatment levels
  pSTAT5 at 24 h post standard washout: partially
